Laboratory results reported in US20250136592A1, “C-LINKED INHIBITORS OF ENL/AF9 YEATS” (Bridge Medicines, priority 2021, published 2025).

By UniProt entry, the sequences of proteins in these tests, tags left out. Residues count along the entry.
UniProt Q03111, 1-138 limits assumed: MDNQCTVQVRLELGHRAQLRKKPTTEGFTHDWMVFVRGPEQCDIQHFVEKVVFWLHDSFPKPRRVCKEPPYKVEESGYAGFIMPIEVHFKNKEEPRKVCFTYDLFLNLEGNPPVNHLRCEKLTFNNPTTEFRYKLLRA

Key:
[1] = test system: MV4:11 (MLL-AF4 MLL) cells; experiment: Cell viability assay (CellTiter-Glo), 12 days; assay type: cell-based; details: read-out: CTG_MV4, 11 12 DAY_EC50, MV4;11 cells, 12 day
ENL YEATS domain = ENL YEATS domain (Homo sapiens (Human), UniProt Q03111); experiment: TR-FRET ENL Screening Assay; details: read-out: TR FRET ENL IC50; 6xHIS ENL YEATS domain binding to H3K9cr peptide

SMILES	EC50 [1] [nM]	IC50 (ENL YEATS domain) [nM]
Cc1nn(-c2ccncc2)c2ccc(C(=O)Nc3ccc4[nH]c([C@H]5CCCN5C)nc4c3)cc12	337	
Cc1nn(C)c2cc(C(=O)Nc3cc4[nH]c([C@H]5CCCCN5C)cc4cn3)ccc12	180	41
CN1CCC[C@@H]1c1nc2cc(NC(=O)c3ccc4c(cnn4-c4ccnnc4)c3)ccc2[nH]1		217
CN1CCC[C@@H]1c1nc2ccc(NC(=O)c3ccc4c(cnn4C4CC4)c3)cc2[nH]1	31	146
